The IC50 is the point on the concentration scale where inhibition reaches its midpoint.

This passage reports IC50 results from ChEMBL document CHEMBL3627640 (Bioorg Med Chem, 2015).

This experiment deals with T1, Mitogen-activated protein kinase kinase kinase 7 (Homo sapiens, UniProt O43318).
T1 sequence (O43318 whole entry): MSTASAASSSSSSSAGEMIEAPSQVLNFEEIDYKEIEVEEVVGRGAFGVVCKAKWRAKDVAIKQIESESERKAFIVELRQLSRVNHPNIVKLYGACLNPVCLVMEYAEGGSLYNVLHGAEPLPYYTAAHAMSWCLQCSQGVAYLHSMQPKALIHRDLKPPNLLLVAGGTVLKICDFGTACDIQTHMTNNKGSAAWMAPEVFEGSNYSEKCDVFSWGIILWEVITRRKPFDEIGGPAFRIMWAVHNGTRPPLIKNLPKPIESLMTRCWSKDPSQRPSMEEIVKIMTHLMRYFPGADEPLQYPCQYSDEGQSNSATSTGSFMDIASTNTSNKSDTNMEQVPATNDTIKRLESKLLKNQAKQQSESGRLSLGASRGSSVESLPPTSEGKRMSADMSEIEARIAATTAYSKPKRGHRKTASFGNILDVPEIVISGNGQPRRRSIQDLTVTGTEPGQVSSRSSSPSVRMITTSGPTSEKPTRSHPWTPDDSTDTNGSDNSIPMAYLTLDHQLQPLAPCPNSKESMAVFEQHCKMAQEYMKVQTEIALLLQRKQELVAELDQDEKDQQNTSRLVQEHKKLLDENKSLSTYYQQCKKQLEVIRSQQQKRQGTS
The experiment in a line: Inhibition of TAK1 (unknown origin) expressed in sf9 cells assessed as 32P level incorporation into myelin basic protein incubated for 5 mins at 30 degC by immunoprecipitation method.

On to `COc1cc(O)c2c(c1)/C=C/C[C@H](O)[C@H](O)C(=O)/C=C\C[C@H](C)OC2=O`, for which the IC50 stood at 8.1 nM.
